Measured values reported in patent US9725465B2, “Biaryl acetamide compounds and methods of use thereof” (Ambit Biosciences Corporation, priority 2013, dated 2017).

Experiments:
[1] = target: FLT3-ITD-F691L (Homo sapiens (Human), UniProt P36888, F691L/INS600HVDFREYEYD); assay: pFLT3 MSD assay, Ba/F3 FLT3-ITD-F691L; assay type: cell-based; conditions: Ba/F3 FLT3-ITD-F691L cells, 2 hours, read-out: BaF3-FLT3-ITD-F691L pFlt3 IC50
[2] = test system: Ba/F3 cells expressing FLT3-ITD
[3] = test system: Ba/F3 cells expressing FLT3-ITD-D835V
[4] = target: FLT3-ITD-D835V (Homo sapiens (Human), UniProt P36888, D835V/INS600HVDFREYEYD); assay: pFLT3 MSD assay, Ba/F3 FLT3-ITD-D835V; assay type: cell-based; conditions: Ba/F3 FLT3-ITD-D835V cells, 2 hours, read-out: BaF3-FLT3-ITD-D835V pFlt3 IC50

Measured: IC50

CC(O)c1n[nH]c2ncc(-c3ccc(CC(=O)Nc4cc(C(C)(C)C)on4)c(F)c3)cc12 (stereo not shown) [Example 62, N-(5-(tert-butyl)isoxazol-3-yl)-2-(2-fluoro-4-(3-(1-hydroxyethyl)-1H-pyrazolo[3,4-b]pyridin-5-yl)phenyl)acetamide]
< 10 nM: all assays above

COc1n[nH]c2ncc(-c3ccc(CC(=O)Nc4cc(C(C)(C)C(F)(F)F)on4)c(F)c3)cc12 [Example 63, 2-(2-fluoro-4-(3-methoxy-1H-pyrazolo[3,4-b]pyridin-5-yl)phenyl)-N-(5-(1,1,1-trifluoro-2-methylpropan-2-yl)isoxazol-3-yl)acetamide]
< 10 nM: all assays above

CC(C)(C)c1cc(NC(=O)Cc2ccc(-c3cnc4[nH]c(C(=O)NCCO)cc4c3)cc2)no1 [Example 64, 5-(4-(2-((5-(tert-butyl)isoxazol-3-yl)amino)-2-oxoethyl)phenyl)-N-(2-hydroxyethyl)-1H-pyrrolo[2,3-b]pyridine-2-carboxamide]
< 10 nM: all assays above

CNC(=O)c1cc2cc(-c3ccc(CC(=O)Nc4cc(C(C)(C)C)on4)cc3)cnc2[nH]1 [Example 65, 5-(4-(2-((5-(tert-butyl)isoxazol-3-yl)amino)-2-oxoethyl)phenyl)-N-methyl-1H-pyrrolo[2,3-b]pyridine-2-carboxamide]
< 10 nM: all assays above

CN(C)CCNC(=O)c1cc2cc(-c3ccc(CC(=O)Nc4cc(C(C)(C)C)on4)cc3)cnc2[nH]1 [Example 66, 5-(4-(2-((5-(tert-butyl)isoxazol-3-yl)amino)-2-oxoethyl)phenyl)-N-(2-(dimethylamino)ethyl)-1H-pyrrolo[2,3-b]pyridine-2-carboxamide]
< 10 nM: all assays above

CN(C)CCCN(C)C(=O)c1cc2cc(-c3ccc(CC(=O)Nc4cc(C(C)(C)C)on4)cc3)cnc2[nH]1 [Example 67, 5-(4-(2-((5-(tert-butyl)isoxazol-3-yl)amino)-2-oxoethyl)phenyl)-N-(3-(dimethylamino)propyl)-N-methyl-1H-pyrrolo[2,3-b]pyridine-2-carboxamide]
< 10 nM: all assays above

CC(C)(C)c1cc(NC(=O)Cc2ccc(-c3cnc4[nH]c(C(=O)NCCS(C)(=O)=O)cc4c3)cc2)no1 [Example 68, 5-(4-(2-((5-(tert-butyl)isoxazol-3-yl)amino)-2-oxoethyl)phenyl)-N-(2-(methylsulfonyl)ethyl)-1H-pyrrolo[2,3-b]pyridine-2-carboxamide]
< 10 nM: all assays above

CN1CCC(NC(=O)c2cc3cc(-c4ccc(CC(=O)Nc5cc(C(C)(C)C)on5)cc4)cnc3[nH]2)CC1 [Example 69, 5-(4-(2-((5-(tert-butyl)isoxazol-3-yl)amino)-2-oxoethyl)phenyl)-N-(1-methylpiperidin-4-yl)-1H-pyrrolo[2,3-b]pyridine-2-carboxamide]
< 10 nM: all assays above

O=C(Cc1ccc(-c2cnc3[nH]c(CO)cc3c2)cc1F)Nc1cc(C2(C(F)(F)F)CC2)on1 [Example 70, 2-(2-fluoro-4-(2-(hydroxymethyl)-1H-pyrrolo[2,3-b]pyridin-5-yl)phenyl)-N-(5-(1-(trifluoromethyl)cyclopropyl)isoxazol-3-yl)acetamide]
< 10 nM: all assays above

COc1cc2nc(-c3ccc(CC(=O)Nc4cc(C5(C(F)(F)F)CC5)on4)c(F)c3)cnc2cc1OCCN1CCOCC1 [Example 79, 2-(2-fluoro-4-(7-methoxy-6-(2-morpholinoethoxy)quinoxalin-2-yl)phenyl)-N-(5-(1-(trifluoromethyl)cyclopropyl)isoxazol-3-yl)acetamide]
< 10 nM: all assays above
